The numbers were not newly measured in article PMC12071944, “Interaction Between Glucagon-like Peptide 1 and Its Analogs with Amyloid-β Peptide Affects Its Fibrillation and Cytotoxicity” (International Journal of Molecular Sciences, 2025), which cites them from elsewhere.

In this series the target is Aβ. More on the design: method as in PMID 38732194. To be noted: ref [58]; read-out: KD for Aβ binding; cited from earlier work.

By Kd is commonly meant the concentration at which binding is half-saturated. Consider human serum albumin, for which the Kd is about 100 nM.
